Assay results: paper PMC7181047, “Flame-Made Calcium Phosphate Nanoparticles with High Drug Loading for Delivery of Biologics” (Molecules, 2020)

Assays:
[1] = Loading of macromolecules on CaP nanoparticles by physisorption (BCA assay of supernatant); format: physicochemical; settings: physisorption on flame-made CaP nanoparticles, PBS pH 7.4, room temperature, up to 24 h, particle and macromolecule concentration both 500 μg/mL
Experimental: Suspensions of protein and peptide-loaded CaP nanoparticles in PBS pH 7.4 (200 μL sample volume) were prepared by the addition of 100 μL of dispersed CaP nanoparticles in PBS pH 7.4 to an equal volume of protein/peptide solution of initial concentration ranging from 200 to 2000 μg/mL. The suspensions were placed on a roller mixer (Stuart SRT9D, Staffordshire, UK) for gentle mixing at 60 rpm at room temperature for 1, 2, 4, 6 and 24 h to investigate the effect of time on adsorption. The particles were separated via centrifugation at 10,000 rpm for 20 min (particle separation was confirmed by monitoring the luminescence of the CaP:Eu nanoparticles in the supernatant that was absent) and the supernatant containing the macromolecule content that has not been adsorbed was collected for quantification using a Pierce bicinchoninic acid (BCA) protein assay kit (ThermoFisher Scientific, Göteborg, Sweden) according to manufacturer’s instructions. Absorbance was measured at 562 nm using a microplate reader (SpectraMax Plus, Molecular Devices, San Jose, CA, USA) and the amount of macromolecules was calculated from a calibration curve. The amount of protein/peptide was calculated from the difference between the initial concentration and the concentration of the supernatant. Furthermore, the loaded particles were washed once with PBS and re-dispersed in PBS. […]

[2] = ζ-potential titration at different pH (isoelectric point); format: physicochemical; settings: pure macromolecules, macromolecules concentration ~100 µg/ml
Experimental: Phase identification of the as-prepared powders was performed by X-Ray diffraction (XRD). XRD data were collected at ambient temperature with a MiniFlex X-ray diffractometer (Rigaku Europe, Neu-Isenburg, Germany) utilizing Cu Kα1 radiation (1.5406 Å) and operating at 40 kV and 15 mA. XRD patterns were recorded between 10 and 80° 2θ at a step size of 0.01°. Rietveld refinement was performed using the Rigaku software. The specific surface area (SSA) was determined by the nitrogen adsorption–desorption isotherms (Brunauer-Emmett-Teller, BET method,) in liquid nitrogen at 77 K using a Tristar II Plus (Micromeritics, Norcross, GA, USA) instrument after degassing for at least 3 h at 110 °C. […] Size distribution and surface charge of CaP and CaP-loaded nanoparticles were evaluated by dynamic light scattering (DLS) and ζ-potential analysis, respectively, in a Malvern Panalytical Zetasizer Ultra instrument (Malvern, UK) at 100 μg/mL particle concentration. […] Absorbance measurements at 225 nm were performed using an Analytik Jena Specord 210 Plus ultraviolet and visible (UV-vis) spectrophotometer (Jena, Germany). The absorbance at 225 nm (where maximum absorbance of CaP nanoparticles was observed) is monitored over time in a partially covered cuvette in order to monitor only the top suspension layer according to the method presented in Spyrogianni et al..

With bovine serum albumin [BSA] the “Loading capacity (loading values reached)” value [1] was 350 mg/g of CaP and the isoelectric point [2] was ~ 5.
